## Antibody variant affinities, Ab-95 light chain, assay 2

The measurements come from Engelhart et al. 2022 (doi:10.1038/s41597-022-01779-4) through the FLAb antibody collection.

The target is the same throughout: PDVDLGDISGINAS, from the HR2 region of SARS-CoV-2 spike.

Parent scFv Ab-95: VH joined to VL by three GGGGS repeats. Changes lie in the light chain CDRs alone.
VH: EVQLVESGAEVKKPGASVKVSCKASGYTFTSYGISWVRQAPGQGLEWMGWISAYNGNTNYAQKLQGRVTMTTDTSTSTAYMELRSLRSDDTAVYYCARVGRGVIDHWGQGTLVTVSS
VL: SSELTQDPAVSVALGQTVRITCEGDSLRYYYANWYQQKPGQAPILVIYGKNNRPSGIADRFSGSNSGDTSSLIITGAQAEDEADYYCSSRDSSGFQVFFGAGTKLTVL

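The starting antibody came from a phage panning campaign against this peptide. AAYL52 was designed without a model: most single CDR substitutions and a random sample of double and triple ones. The assay is AlphaSeq: two haploid yeast populations carry antibody and antigen on their surface. Pairs that bind mate more often; barcode pairs of the diploids are counted by sequencing. Scores were corrected for input abundance and mapped to Kd with protein pairs of known affinity run in the same pool. There are three technical replicates.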

Each variant is given by its three light chain CDRs, as the data file delimits them; those of the parent are EGDSLRYYYAN, GKNNRPS, SSRDSSGFQVF.
This list gathers variants with a substitution at S93 (VL, numbered from residue 1).
Each Kd is an estimate from the mating assay, the geometric mean of the replicates in which the pair was seen; lower is stronger.
"nd" marks a missing value. The strain was present, yet no cells mated with the target were sequenced in any replicate, which points to weak or no binding.
For reference, the parent read 200 nM as the reference entry and 180 nM as a member of this library.

Variant EGDRLRYYYAN | GKNNRPS | SSRDSHGFKVF showed 86 µM (1 of 3 replicates).
Variant EGDSLRYYYAN | GKNKRPW | SSRDSWGFQVF showed 12 µM (2 of 3 replicates).
Variant EGDSLRYRYAN | GKNNRPS | SSDDSWGFQVF showed 180 nM (3 of 3 replicates).
Variant EGDSLKYYYAN | GKNNRPS | SSRDSHGFEVF showed 280 nM (3 of 3 replicates).
Variant EGDSLRYYMAN | GKNNRPS | SSRDSWGFQVV showed 230 nM (3 of 3 replicates).
Variant EGDSLRYYYAN | DKNNRPS | SSRDSYGQQVF showed 1.7 µM (3 of 3 replicates).
Variant EGDSLREYYAN | GKNNLPS | SSRDSYGFQVF showed 50 µM (2 of 3 replicates).
Variant EIDSLRYYYAN | GKNNRPS | SSRDSFGAQVF showed 5.1 µM (1 of 3 replicates).
Variant CGDSLRYYYAN | GRNNRPS | SSRDSFGFQVF showed 1.6 µM (1 of 3 replicates).
Variant EGDSLRYYYAN | EKNNRPS | SSRDSFGEQVF showed 2.9 µM (2 of 3 replicates).
Variant RGDSLRYYYAN | GKNNRPS | SSRDSIGFEVF showed nd (0 of 3 replicates).
Variant EGDGLRYYYAN | GKNNRRS | SSRDSGGFQVF showed 5.1 µM (3 of 3 replicates).
Variant EGDSLRYYYAN | GKNNRPS | SSRDSGRFQTF showed 150 nM (3 of 3 replicates).
Variant EGDWLRYYYAN | GKNNRPS | SSRDSRGFQVF showed 1.2 µM (2 of 3 replicates).
Variant EGDSLRYYYAN | GKNNRPE | HSRDSFGFQVF showed 230 nM (3 of 3 replicates).
Variant EGDSLRYYYAN | GKNNRKS | SSRDSMGFQVF showed 250 nM (3 of 3 replicates).
Variant EGFSLRYYYAN | GKDNRPS | SSRDSYGFQVF showed 10 µM (3 of 3 replicates).

Excerpt, the first 2 entries:

{"CDR-L1": "EGDRLRYYYAN", "CDR-L2": "GKNNRPS", "CDR-L3": "SSRDSHGFKVF", "Kd (apparent)": "86 µM", "replicates with signal": "1/3"}
{"CDR-L1": "EGDSLRYYYAN", "CDR-L2": "GKNKRPW", "CDR-L3": "SSRDSWGFQVF", "Kd (apparent)": "12 µM", "replicates with signal": "2/3"}

As a blank, each scFv also met three strains without target: over library AAYL52, 28% of these pairings were detected, typically at 8.2 µM and seldom below 800 nM.